According to patent US9850216B2 (H. LEE MOFFITT CANCER CENTER AND RESEARCH INSTITUTE, INC., priority 2013, dated 2017):
pIC50: −log10 of the molar value. Like-named read-outs stand apart in the source and are kept apart here.

By UniProt entry, the sequences of proteins in these tests, tags left out.
UniProt Q07912, whole entry: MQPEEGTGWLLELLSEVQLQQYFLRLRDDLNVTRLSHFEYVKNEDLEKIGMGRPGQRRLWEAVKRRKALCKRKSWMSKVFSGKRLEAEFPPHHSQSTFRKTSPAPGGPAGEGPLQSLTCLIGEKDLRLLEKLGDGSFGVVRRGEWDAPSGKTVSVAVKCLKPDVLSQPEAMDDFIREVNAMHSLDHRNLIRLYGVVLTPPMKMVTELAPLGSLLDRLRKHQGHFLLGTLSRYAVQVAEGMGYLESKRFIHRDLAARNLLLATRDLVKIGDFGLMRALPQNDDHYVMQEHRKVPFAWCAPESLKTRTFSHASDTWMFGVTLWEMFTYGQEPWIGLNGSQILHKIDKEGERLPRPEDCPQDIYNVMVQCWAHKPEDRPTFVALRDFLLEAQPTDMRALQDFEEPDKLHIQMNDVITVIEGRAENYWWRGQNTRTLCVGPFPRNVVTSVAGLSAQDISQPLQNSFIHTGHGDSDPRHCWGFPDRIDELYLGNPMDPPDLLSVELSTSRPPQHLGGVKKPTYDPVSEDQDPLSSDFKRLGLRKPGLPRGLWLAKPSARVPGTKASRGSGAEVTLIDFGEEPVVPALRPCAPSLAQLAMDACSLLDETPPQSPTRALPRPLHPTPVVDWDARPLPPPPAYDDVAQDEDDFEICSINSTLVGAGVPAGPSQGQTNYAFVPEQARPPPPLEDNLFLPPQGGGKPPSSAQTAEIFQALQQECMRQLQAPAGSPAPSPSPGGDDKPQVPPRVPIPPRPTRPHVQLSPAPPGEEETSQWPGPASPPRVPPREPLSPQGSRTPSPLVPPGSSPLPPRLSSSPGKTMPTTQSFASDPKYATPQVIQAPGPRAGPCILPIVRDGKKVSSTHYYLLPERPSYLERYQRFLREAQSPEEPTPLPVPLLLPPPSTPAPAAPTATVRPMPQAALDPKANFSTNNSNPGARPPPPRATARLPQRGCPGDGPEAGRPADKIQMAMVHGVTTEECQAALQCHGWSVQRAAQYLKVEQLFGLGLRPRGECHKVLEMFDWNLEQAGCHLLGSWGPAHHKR

Legend:
ACK1 = ACK1 (Homo sapiens, UniProt Q07912); experiment: 32P Hotspot assay (Reaction Biology), ACK1 IC50; format: biochemical
VCaP cells = experiment: Cell proliferation, trypan blue exclusion, VCaP; details: read-out: IC50, inhibition of cell growth in VCaP cells; 36 hrs, viable cells by trypan blue exclusion
[1] = In vitro human plasma stability by HPLC; details: time-course up to 24 hrs
[2] = mouse models; literature; cited from earlier work

Row | Structure (SMILES) | fold improvement in ACK1 inhibitory activity (IC50) versus related analog (ACK1) [fold] | selectivity towards ACK1 compared with Src and ALK (ACK1) | pIC50 (VCaP cells) | stability in human plasma [1] | other results
1 | CN1CCN(c2ccc(Nc3ncc(Cl)c(NC[C@H]4CCCO4)n3)cc2)CC1 [DZ1-067, (R)-5-chloro-N2-(4-(4-methylpiperazin-1-yl)phenyl)-N4-((tetrahydrofuran-2-yl)methyl)pyrimidine-2,4-diamine] | 1.5 | considerable selectivity towards ACK1 | 5.70 | stable in human plasma | –
2 | CN1CCN(c2ccc(Nc3ncc(Cl)c(NC[C@@H]4CCCO4)n3)cc2)CC1 [DZ1-077, (S)-5-chloro-N2-(4-(4-methylpiperazin-1-yl)phenyl)-N4-((tetrahydrofuran-2-yl)methyl)pyrimidine-2,4-diamine] | – | considerable selectivity towards ACK1 | 5.40 | stable in human plasma | –
3 | Cc1cc(Nc2ncc(Br)c(NCC3CCCO3)n2)ccc1O (centres unmarked) [SK1-040, 4-(5-bromo-4-((tetrahydrofuran-2-yl)methylamino)pyrimidin-2-ylamino)-2-methylphenol] | – | – | – | – | pIC50 (ACK1; read-out: IC50 (32P Hotspot assay), Table 2): 7.00
4 | COc1cc(Oc2ccccc2)ccc1-c1nc(C2CC(C)(O)C2)n2ccnc(N)c12 (centres unmarked) | – | – | – | – | oral bioavailability [2]: orally bioavailable
5 | CN1CCN(c2ccc(Nc3nccc(NCC4CCCO4)n3)cc2)CC1 (racemic) | > 1.5 | – | – | – | pIC50 (ACK1; read-out: ACK1 IC50, 32P hotspot / enzymatic assay): 7.55
